According to patent US11000505B2 (priority 2010, dated 2021):

System: pial artery
Conditions: pig, in vivo

With “calcitonin-gene related polypeptide (ACDTATCVTHRLAGLLSRSGGVVKNNFVPTNVGSKAF; Calcitonin gene-related peptide 1; UniProt P06881 83-119, looked up) [reference compound]” the “dilation response in presence of glibenclamide” value was “blocked the dilation”.
